Assay results reported in ChEMBL document CHEMBL1146972, “Specific inhibitors of Plasmodium falciparum thioredoxin reductase as potential antimalarial agents” (Bioorg Med Chem Lett, 2006).

Target: T1, Glutathione reductase, mitochondrial (Homo sapiens) (UniProt P00390)
T1 sequence (whole entry): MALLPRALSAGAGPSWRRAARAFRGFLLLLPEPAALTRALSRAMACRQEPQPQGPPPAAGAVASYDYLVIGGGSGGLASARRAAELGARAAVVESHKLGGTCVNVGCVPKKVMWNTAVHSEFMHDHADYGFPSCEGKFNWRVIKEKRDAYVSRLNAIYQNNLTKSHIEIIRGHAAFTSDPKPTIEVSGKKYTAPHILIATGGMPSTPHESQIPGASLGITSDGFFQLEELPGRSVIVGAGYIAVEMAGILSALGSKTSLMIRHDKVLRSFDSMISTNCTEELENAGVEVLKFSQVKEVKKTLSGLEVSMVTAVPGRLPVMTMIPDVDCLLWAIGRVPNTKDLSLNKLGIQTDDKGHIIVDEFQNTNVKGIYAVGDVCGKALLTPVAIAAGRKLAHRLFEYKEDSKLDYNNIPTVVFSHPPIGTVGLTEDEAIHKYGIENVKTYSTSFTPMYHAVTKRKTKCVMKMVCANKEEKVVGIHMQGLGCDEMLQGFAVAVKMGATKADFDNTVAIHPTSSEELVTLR
Test: Inhibition of human GR at 0.5 uM

`O=[N+]([O-])c1ccc(Sc2ccc([N+](=O)[O-])cc2[N+](=O)[O-])c([N+](=O)[O-])c1` gave an inhibition of 18%.
